Test results as given in US10011585B2, “Factor XIa inhibitors” (Merck Sharp & Dohme Corp., priority 2014, dated 2018).

Chains of the proteins cited; added tags and fusions are not shown. Residues count along the entry.
UniProt P03951, 388-625 limits assumed: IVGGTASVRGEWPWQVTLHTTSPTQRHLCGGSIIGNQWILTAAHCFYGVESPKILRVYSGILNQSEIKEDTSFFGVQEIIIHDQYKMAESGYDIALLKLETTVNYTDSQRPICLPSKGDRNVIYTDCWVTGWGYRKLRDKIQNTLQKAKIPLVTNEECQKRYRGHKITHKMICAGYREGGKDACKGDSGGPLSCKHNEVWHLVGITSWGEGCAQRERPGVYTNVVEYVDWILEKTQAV
UniProt P03951, 19-387 partner limits assumed: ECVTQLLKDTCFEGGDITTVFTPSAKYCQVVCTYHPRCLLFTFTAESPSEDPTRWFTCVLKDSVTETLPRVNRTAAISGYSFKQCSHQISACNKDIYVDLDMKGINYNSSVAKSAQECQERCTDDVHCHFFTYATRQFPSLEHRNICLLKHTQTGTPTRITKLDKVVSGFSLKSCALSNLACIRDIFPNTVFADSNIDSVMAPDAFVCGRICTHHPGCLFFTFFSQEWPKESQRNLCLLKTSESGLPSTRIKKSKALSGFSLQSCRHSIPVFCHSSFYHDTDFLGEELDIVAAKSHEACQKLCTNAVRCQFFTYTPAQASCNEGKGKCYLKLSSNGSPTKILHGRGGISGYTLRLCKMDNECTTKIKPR

Molecular target: human Factor XIa (Homo sapiens, UniProt P03951)
Assay: Factor XIa Assay
Details: read-out: F11a IC50, Examples 1-19 table
Procedure: The effectiveness of a compound of the present invention as an inhibitor of Coagulation Factor XIa can be determined using a relevant purified serine protease, and an appropriate synthetic substrate. The rate of hydrolysis of the chromogenic or fluorogenic substrate by the relevant serine protease was measured both in the absence and presence of compounds of the present invention. Assays were conducted at room temperature or at 37° C. […] A decrease in the rate of fluorescence change in the presence of inhibitor is indicative of enzyme inhibition. Such methods are known to one skilled in the art. […]
Factor XIa determinations were made in 50 mM HEPES buffer at pH 7.4 containing 150 mM NaCl, 5 mM CaCl2, and 0.1% PEG 8000 (polyethylene glycol; JT Baker or Fisher Scientific). Determinations were made using purified human Factor XIa at a final concentration of 40 pM (Sekisui Diagnostics) and the synthetic substrate, Z-Gly-Pro-Arg-AFC, TFA salt (Sigma #C0980) at a concentration of 100 μM.
Activity assays were performed by diluting a stock solution of substrate at least tenfold to a final concentration ≤0.1 Km into a solution containing enzyme or enzyme equilibrated with inhibitor. Times required to achieve equilibration between enzyme and inhibitor were determined in control experiments. Initial velocities of product formation in the absence (Vo) or presence of inhibitor (Vi) were measured. […]

SMILES | IC50 [nM]
N#Cc1ccc(Cl)cc1-c1ccc([C@H](Cc2ccccc2)c2nc3cc(C(=O)O)ccc3[nH]2)[n+]([O-])c1 | 27.9
N#Cc1ccc(Cl)cc1-c1ccc([C@@H](Cc2ccccc2)c2nc3cc(C(=O)O)ccc3[nH]2)[n+]([O-])c1 | 25.4
